# PMC4423116, “Tarantula toxins use common surfaces for interacting with Kv and ASIC ion channels” (eLife, 2015)
# Target: T1, Kv2.1 channel (Rattus norvegicus, UniProt P15387)
# T1 construct: expressed in transfected cells; host or cells: Xenopus laevis oocytes, cRNA injection
# T1 sequence (P15387 1-857): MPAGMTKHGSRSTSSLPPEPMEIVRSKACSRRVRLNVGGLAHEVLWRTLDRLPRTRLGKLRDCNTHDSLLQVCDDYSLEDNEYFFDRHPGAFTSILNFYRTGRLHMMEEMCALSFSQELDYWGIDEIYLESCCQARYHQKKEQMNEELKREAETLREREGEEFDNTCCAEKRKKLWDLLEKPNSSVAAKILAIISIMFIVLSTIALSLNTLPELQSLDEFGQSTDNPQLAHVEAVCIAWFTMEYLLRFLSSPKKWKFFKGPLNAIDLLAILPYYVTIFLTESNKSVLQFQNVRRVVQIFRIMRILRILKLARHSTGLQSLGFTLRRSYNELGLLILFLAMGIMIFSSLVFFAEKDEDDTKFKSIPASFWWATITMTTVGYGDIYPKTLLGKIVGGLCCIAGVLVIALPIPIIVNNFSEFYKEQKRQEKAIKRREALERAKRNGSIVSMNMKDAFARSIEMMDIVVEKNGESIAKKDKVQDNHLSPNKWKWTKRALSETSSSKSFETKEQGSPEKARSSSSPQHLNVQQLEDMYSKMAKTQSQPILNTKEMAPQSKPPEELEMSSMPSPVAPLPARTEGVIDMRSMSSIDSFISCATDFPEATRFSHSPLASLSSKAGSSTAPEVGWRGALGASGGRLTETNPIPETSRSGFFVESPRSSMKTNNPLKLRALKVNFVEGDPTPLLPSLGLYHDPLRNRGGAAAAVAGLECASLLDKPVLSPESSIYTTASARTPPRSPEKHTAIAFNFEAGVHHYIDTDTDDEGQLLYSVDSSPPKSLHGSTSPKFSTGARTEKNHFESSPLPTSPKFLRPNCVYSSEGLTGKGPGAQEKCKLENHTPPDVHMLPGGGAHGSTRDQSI
# Assay: Inhibition of Kv2.1 channel currents in Xenopus oocytes (two-electrode voltage clamp), apparent affinity
# Format: cell-based
# Conditions: Kv2.1 in oocytes; for ∆∆G (perturbation energy): from apparent Kd of mutant vs GxTx-1E(Nle); for Kd^mut/Kd^wt: ratio of apparent Kd of mutant to GxTx-1E(Nle)
SMILES,∆∆G (perturbation energy) [kcal/mol],Kd^mut/Kd^wt
CCCC[C@H](NC(=O)[C@@H]1CCCN1C(=O)[C@H](Cc1ccccc1)NC(=O)[C@H](CC(N)=O)NC(=O)[C@@H]1CSSC[C@@H]2NC(=O)[C@H](C)NC(=O)[C@@H]3CCCN3C(=O)[C@H](CCCCN)NC(=O)CNC(=O)[C@H](CO)NC(=O)CNC(=O)[C@@H]3CSSC[C@H](NC(=O)[C@H](C(C)C)NC(=O)[C@H](Cc4ccc(O)cc4)NC(=O)[C@H](CCCCN)NC(=O)[C@@H]4CCCN4C(=O)[C@H](CSSC[C@H](NC(=O)[C@H](CCC(=O)O)NC(=O)CNC(=O)[C@@H](N)CCC(=O)O)C(=O)NCC(=O)NCC(=O)N[C@@H](Cc4ccccc4)C(=O)N[C@@H](Cc4c[nH]c5ccccc45)C(=O)N[C@@H](Cc4c[nH]c5ccccc45)C(=O)N[C@@H](C)C(=O)N3)NC2=O)C(=O)N[C@@H](CO)C(=O)N2CCC[C@H]2C(=O)N[C@@H](CCCCN)C(=O)N[C@@H](Cc2c[nH]c3ccccc23)C(=O)NCC(=O)N[C@@H](CC(C)C)C(=O)N1)C(=O)N1CCC[C@H]1C(=O)O [Toxin K10A],0.88,4.4
CCCC[C@H](NC(=O)[C@@H]1CCCN1C(=O)[C@H](Cc1ccccc1)NC(=O)[C@H](CC(N)=O)NC(=O)[C@@H]1CSSC[C@@H]2NC(=O)[C@H](C)NC(=O)[C@@H]3CCCN3C(=O)[C@H](C)NC(=O)CNC(=O)[C@H](CO)NC(=O)CNC(=O)[C@@H]3CSSC[C@H](NC(=O)[C@H](C(C)C)NC(=O)[C@H](Cc4ccc(O)cc4)NC(=O)[C@H](CCCCN)NC(=O)[C@@H]4CCCN4C(=O)[C@H](CSSC[C@H](NC(=O)[C@H](CCC(=O)O)NC(=O)CNC(=O)[C@@H](N)CCC(=O)O)C(=O)NCC(=O)NCC(=O)N[C@@H](Cc4ccccc4)C(=O)N[C@@H](Cc4c[nH]c5ccccc45)C(=O)N[C@@H](Cc4c[nH]c5ccccc45)C(=O)N[C@@H](CCCCN)C(=O)N3)NC2=O)C(=O)N[C@@H](CO)C(=O)N2CCC[C@H]2C(=O)N[C@@H](CCCCN)C(=O)N[C@@H](Cc2c[nH]c3ccccc23)C(=O)NCC(=O)N[C@@H](CC(C)C)C(=O)N1)C(=O)N1CCC[C@H]1C(=O)O [Toxin K15A],0.77,3.7
CCCC[C@H](NC(=O)[C@@H]1CCCN1C(=O)[C@H](Cc1ccccc1)NC(=O)[C@H](CC(N)=O)NC(=O)[C@@H]1CSSC[C@@H]2NC(=O)[C@H](C)NC(=O)[C@@H]3CCCN3C(=O)[C@H](CCCCN)NC(=O)CNC(=O)[C@H](CO)NC(=O)CNC(=O)[C@@H]3CSSC[C@H](NC(=O)[C@H](C(C)C)NC(=O)[C@H](Cc4ccc(O)cc4)NC(=O)[C@H](C)NC(=O)[C@@H]4CCCN4C(=O)[C@H](CSSC[C@H](NC(=O)[C@H](CCC(=O)O)NC(=O)CNC(=O)[C@@H](N)CCC(=O)O)C(=O)NCC(=O)NCC(=O)N[C@@H](Cc4ccccc4)C(=O)N[C@@H](Cc4c[nH]c5ccccc45)C(=O)N[C@@H](Cc4c[nH]c5ccccc45)C(=O)N[C@@H](CCCCN)C(=O)N3)NC2=O)C(=O)N[C@@H](CO)C(=O)N2CCC[C@H]2C(=O)N[C@@H](CCCCN)C(=O)N[C@@H](Cc2c[nH]c3ccccc23)C(=O)NCC(=O)N[C@@H](CC(C)C)C(=O)N1)C(=O)N1CCC[C@H]1C(=O)O [Toxin K21A],0.40,2.0
CCCC[C@H](NC(=O)[C@@H]1CCCN1C(=O)[C@H](Cc1ccccc1)NC(=O)[C@H](CC(N)=O)NC(=O)[C@@H]1CSSC[C@@H]2NC(=O)[C@H](C)NC(=O)[C@@H]3CCCN3C(=O)[C@H](CCCCN)NC(=O)CNC(=O)[C@H](CO)NC(=O)CNC(=O)[C@@H]3CSSC[C@H](NC(=O)[C@H](C(C)C)NC(=O)[C@H](Cc4ccc(O)cc4)NC(=O)[C@H](CCCCN)NC(=O)[C@@H]4CCCN4C(=O)[C@H](CSSC[C@H](NC(=O)[C@H](CCC(=O)O)NC(=O)CNC(=O)[C@@H](N)CCC(=O)O)C(=O)NCC(=O)NCC(=O)N[C@@H](Cc4ccccc4)C(=O)N[C@@H](Cc4c[nH]c5ccccc45)C(=O)N[C@@H](Cc4c[nH]c5ccccc45)C(=O)N[C@@H](CCCCN)C(=O)N3)NC2=O)C(=O)N[C@@H](CO)C(=O)N2CCC[C@H]2C(=O)N[C@@H](C)C(=O)N[C@@H](Cc2c[nH]c3ccccc23)C(=O)NCC(=O)N[C@@H](CC(C)C)C(=O)N1)C(=O)N1CCC[C@H]1C(=O)O [Toxin K27A],0.73,3.4
CCCC[C@H](NC(=O)[C@@H]1CCCN1C(=O)[C@H](Cc1ccccc1)NC(=O)[C@H](CC(N)=O)NC(=O)[C@@H]1CSSC[C@@H]2NC(=O)[C@H](C)NC(=O)[C@@H]3CCCN3C(=O)[C@H](CCCCN)NC(=O)CNC(=O)[C@H](CO)NC(=O)CNC(=O)[C@@H]3CSSC[C@H](NC(=O)[C@H](C(C)C)NC(=O)[C@H](Cc4ccc(O)cc4)NC(=O)[C@H](CCCCN)NC(=O)[C@@H]4CCCN4C(=O)[C@H](CSSC[C@H](NC(=O)[C@H](CCC(=O)O)NC(=O)CNC(=O)[C@@H](N)CCC(=O)O)C(=O)NCC(=O)NCC(=O)N[C@@H](Cc4ccccc4)C(=O)N[C@@H](Cc4c[nH]c5ccccc45)C(=O)N[C@@H](Cc4c[nH]c5ccccc45)C(=O)N[C@@H](CCCCN)C(=O)N3)NC2=O)C(=O)N[C@@H](CO)C(=O)N2CCC[C@H]2C(=O)N[C@@H](CCCCN)C(=O)N[C@@H](Cc2c[nH]c3ccccc23)C(=O)NCC(=O)N[C@@H](C)C(=O)N1)C(=O)N1CCC[C@H]1C(=O)O [Toxin L30A],1.42,11.0
CCCC[C@H](NC(=O)[C@@H]1CCCN1C(=O)[C@H](Cc1ccccc1)NC(=O)[C@H](C)NC(=O)[C@@H]1CSSC[C@@H]2NC(=O)[C@H](C)NC(=O)[C@@H]3CCCN3C(=O)[C@H](CCCCN)NC(=O)CNC(=O)[C@H](CO)NC(=O)CNC(=O)[C@@H]3CSSC[C@H](NC(=O)[C@H](C(C)C)NC(=O)[C@H](Cc4ccc(O)cc4)NC(=O)[C@H](CCCCN)NC(=O)[C@@H]4CCCN4C(=O)[C@H](CSSC[C@H](NC(=O)[C@H](CCC(=O)O)NC(=O)CNC(=O)[C@@H](N)CCC(=O)O)C(=O)NCC(=O)NCC(=O)N[C@@H](Cc4ccccc4)C(=O)N[C@@H](Cc4c[nH]c5ccccc45)C(=O)N[C@@H](Cc4c[nH]c5ccccc45)C(=O)N[C@@H](CCCCN)C(=O)N3)NC2=O)C(=O)N[C@@H](CO)C(=O)N2CCC[C@H]2C(=O)N[C@@H](CCCCN)C(=O)N[C@@H](Cc2c[nH]c3ccccc23)C(=O)NCC(=O)N[C@@H](CC(C)C)C(=O)N1)C(=O)N1CCC[C@H]1C(=O)O [Toxin N32A],1.01,5.5
CCCC[C@H](NC(=O)[C@@H]1CCCN1C(=O)[C@H](Cc1ccccc1)NC(=O)[C@H](CC(N)=O)NC(=O)[C@@H]1CSSC[C@@H]2NC(=O)[C@H](C)NC(=O)[C@H](C)NC(=O)[C@H](CCCCN)NC(=O)CNC(=O)[C@H](CO)NC(=O)CNC(=O)[C@@H]3CSSC[C@H](NC(=O)[C@H](C(C)C)NC(=O)[C@H](Cc4ccc(O)cc4)NC(=O)[C@H](CCCCN)NC(=O)[C@@H]4CCCN4C(=O)[C@H](CSSC[C@H](NC(=O)[C@H](CCC(=O)O)NC(=O)CNC(=O)[C@@H](N)CCC(=O)O)C(=O)NCC(=O)NCC(=O)N[C@@H](Cc4ccccc4)C(=O)N[C@@H](Cc4c[nH]c5ccccc45)C(=O)N[C@@H](Cc4c[nH]c5ccccc45)C(=O)N[C@@H](CCCCN)C(=O)N3)NC2=O)C(=O)N[C@@H](CO)C(=O)N2CCC[C@H]2C(=O)N[C@@H](CCCCN)C(=O)N[C@@H](Cc2c[nH]c3ccccc23)C(=O)NCC(=O)N[C@@H](CC(C)C)C(=O)N1)C(=O)N1CCC[C@H]1C(=O)O [Toxin P16A],2.75,102.5
CCCC[C@H](NC(=O)[C@@H]1CCCN1C(=O)[C@H](Cc1ccccc1)NC(=O)[C@H](CC(N)=O)NC(=O)[C@@H]1CSSC[C@@H]2NC(=O)[C@H](C)NC(=O)[C@@H]3CCCN3C(=O)[C@H](CCCCN)NC(=O)CNC(=O)[C@H](CO)NC(=O)CNC(=O)[C@@H]3CSSC[C@H](NC(=O)[C@H](C(C)C)NC(=O)[C@H](Cc4ccc(O)cc4)NC(=O)[C@H](CCCCN)NC(=O)[C@H](C)NC(=O)[C@H](CSSC[C@H](NC(=O)[C@H](CCC(=O)O)NC(=O)CNC(=O)[C@@H](N)CCC(=O)O)C(=O)NCC(=O)NCC(=O)N[C@@H](Cc4ccccc4)C(=O)N[C@@H](Cc4c[nH]c5ccccc45)C(=O)N[C@@H](Cc4c[nH]c5ccccc45)C(=O)N[C@@H](CCCCN)C(=O)N3)NC2=O)C(=O)N[C@@H](CO)C(=O)N2CCC[C@H]2C(=O)N[C@@H](CCCCN)C(=O)N[C@@H](Cc2c[nH]c3ccccc23)C(=O)NCC(=O)N[C@@H](CC(C)C)C(=O)N1)C(=O)N1CCC[C@H]1C(=O)O [Toxin P20A],0.63,2.9
